US11464859B2 (priority 2005, dated 2022)
Where two headings read alike, the source gives them in different places.

Tests used:
[1] = tested on: human tumour xenografts (renal cell carcinoma RXF 944LX, mammary cancer MAXF 401); experiment: subcutaneously transplanted human tumour xenografts in vivo
[2] = for secondary parameters (safety parameters): any of the dose levels

arsenous acid sodium salt
doses giving the highest efficacy [1]: ⅓-⅔ | safety (laboratory) parameters, overall ([2]; all patients): no clinically significant results | secondary parameters (safety parameters) ([2]; patient H-W. S.): no clinically significant results | secondary parameters (safety parameters) ([2]; patient five): no clinically significant results | secondary parameters (safety parameters) ([2]; patient four): no clinically significant results | secondary parameters (safety parameters) ([2]; patient one): no clinically significant results | secondary parameters (safety parameters) ([2]; patient three): no clinically significant results | secondary parameters (safety parameters) ([2]; patient two): no clinically significant results
